Results as given in PubChem BioAssay (NCI).
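Cultured in 96-well plates, cells were exposed to test compound for 48 hours across five concentrations. GI50 is the concentration that inhibits growth by half. TGI: total growth inhibition.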

What was measured:
Test in all cases: DTP human tumour cell line panel, 48 h
NCI-H23 lung = test system: NCI-H23 lung
NCI-H322M lung = test system: NCI-H322M lung
NCI-H460 lung = test system: NCI-H460 lung
NCI-H522 lung = test system: NCI-H522 lung
NCI/ADR-RES ovarian = test system: NCI/ADR-RES ovarian
OVCAR-3 ovarian = test system: OVCAR-3 ovarian
OVCAR-4 ovarian = test system: OVCAR-4 ovarian
OVCAR-5 ovarian = test system: OVCAR-5 ovarian
OVCAR-8 ovarian = test system: OVCAR-8 ovarian
PC-3 prostate = test system: PC-3 prostate
RPMI-8226 leukemia = test system: RPMI-8226 leukemia
RXF 393 renal = test system: RXF 393 renal
SF-268 CNS = test system: SF-268 CNS
SF-295 CNS = test system: SF-295 CNS
SF-539 CNS = test system: SF-539 CNS
SK-MEL-2 melanoma = test system: SK-MEL-2 melanoma
SK-MEL-28 melanoma = test system: SK-MEL-28 melanoma
SK-MEL-5 melanoma = test system: SK-MEL-5 melanoma
SK-OV-3 ovarian = test system: SK-OV-3 ovarian
SN12C renal = test system: SN12C renal
SNB-19 CNS = test system: SNB-19 CNS
SNB-75 CNS = test system: SNB-75 CNS
SR leukemia = test system: SR leukemia
SW-620 colon = test system: SW-620 colon
T-47D breast = test system: T-47D breast
TK-10 renal = test system: TK-10 renal
U251 CNS = test system: U251 CNS
UACC-257 melanoma = test system: UACC-257 melanoma
UACC-62 melanoma = test system: UACC-62 melanoma
UO-31 renal = test system: UO-31 renal

Molecule CCP1(=O)N(CC(C)(C)C)C(c2ccccc2)CC(c2ccccc2)N1CC(C)(C)C (centres undefined) has a TGI (NCI-H23 lung) of 3.6 µM, a GI50 (NCI-H322M lung) of 3.2 µM and a TGI (NCI-H322M lung) of 8.85 µM. It also gave a GI50 (NCI-H460 lung) of 5.09 µM, a TGI (NCI-H460 lung) of 20.2 µM and a GI50 (NCI-H522 lung) of 2.1 µM. It also gave a TGI (NCI-H522 lung) of 5.52 µM, a GI50 (NCI/ADR-RES ovarian) of 1.92 µM and a TGI (NCI/ADR-RES ovarian) of 4.09 µM. The GI50 (OVCAR-3 ovarian) was 4.12 µM, the TGI (OVCAR-3 ovarian) was 14.8 µM and the GI50 (OVCAR-4 ovarian) was 1.49 µM. For the same molecule, the TGI (OVCAR-4 ovarian) was 3.88 µM, the GI50 (OVCAR-5 ovarian) was 3.68 µM and the TGI (OVCAR-5 ovarian) was 9.38 µM. It also gave a GI50 (OVCAR-8 ovarian) of 2.85 µM, a TGI (OVCAR-8 ovarian) of 7.77 µM and a GI50 (PC-3 prostate) of 1.8 µM. It also gave a TGI (PC-3 prostate) of 3.55 µM, a GI50 (RPMI-8226 leukemia) of 1.7 µM and a TGI (RPMI-8226 leukemia) of 6.28 µM. It also gave a GI50 (RXF 393 renal) of 2.46 µM, a TGI (RXF 393 renal) of 7.12 µM and a GI50 (SF-268 CNS) of 4.03 µM. The TGI (SF-268 CNS) was 8.66 µM, the GI50 (SF-295 CNS) was 3.07 µM and the TGI (SF-295 CNS) was 7.64 µM. The GI50 (SF-539 CNS) was 11.2 µM, the TGI (SF-539 CNS) was 35.3 µM and the GI50 (SK-MEL-2 melanoma) was 2.01 µM. For the same molecule, the TGI (SK-MEL-2 melanoma) was 3.84 µM, the GI50 (SK-MEL-28 melanoma) was 1.95 µM and the TGI (SK-MEL-28 melanoma) was 3.9 µM. The GI50 (SK-MEL-5 melanoma) was 2.84 µM, the TGI (SK-MEL-5 melanoma) was 7.83 µM and the GI50 (SK-OV-3 ovarian) was 6.43 µM. For the same molecule, the TGI (SK-OV-3 ovarian) was 19 µM, the GI50 (SN12C renal) was 3.22 µM and the TGI (SN12C renal) was 8.22 µM. For the same molecule, the GI50 (SNB-19 CNS) was 1.82 µM, the TGI (SNB-19 CNS) was 3.55 µM and the GI50 (SNB-75 CNS) was 3.03 µM. For the same molecule, the TGI (SNB-75 CNS) was 9.22 µM, the GI50 (SR leukemia) was 2.65 µM and the TGI (SR leukemia) was 8.57 µM. It also gave a GI50 (SW-620 colon) of 4.47 µM, a TGI (SW-620 colon) of 17.6 µM and a GI50 (T-47D breast) of 2.73 µM. The TGI (T-47D breast) was 9.6 µM, the GI50 (TK-10 renal) was 4.99 µM and the TGI (TK-10 renal) was 15.2 µM. For the same molecule, the GI50 (U251 CNS) was 1.74 µM, the TGI (U251 CNS) was 3.16 µM and the GI50 (UACC-257 melanoma) was 3.9 µM. It also gave a TGI (UACC-257 melanoma) of 10.6 µM, a GI50 (UACC-62 melanoma) of 2.85 µM and a TGI (UACC-62 melanoma) of 7.42 µM. The GI50 (UO-31 renal) was 1.94 µM and the TGI (UO-31 renal) was 4.33 µM.
